Experimental data reported in PMC6027421 (Pharmaceuticals, 2018).

The chains behind the UniProt entries cited, without tags or fusion partners.
UniProt P05093, whole entry V366M: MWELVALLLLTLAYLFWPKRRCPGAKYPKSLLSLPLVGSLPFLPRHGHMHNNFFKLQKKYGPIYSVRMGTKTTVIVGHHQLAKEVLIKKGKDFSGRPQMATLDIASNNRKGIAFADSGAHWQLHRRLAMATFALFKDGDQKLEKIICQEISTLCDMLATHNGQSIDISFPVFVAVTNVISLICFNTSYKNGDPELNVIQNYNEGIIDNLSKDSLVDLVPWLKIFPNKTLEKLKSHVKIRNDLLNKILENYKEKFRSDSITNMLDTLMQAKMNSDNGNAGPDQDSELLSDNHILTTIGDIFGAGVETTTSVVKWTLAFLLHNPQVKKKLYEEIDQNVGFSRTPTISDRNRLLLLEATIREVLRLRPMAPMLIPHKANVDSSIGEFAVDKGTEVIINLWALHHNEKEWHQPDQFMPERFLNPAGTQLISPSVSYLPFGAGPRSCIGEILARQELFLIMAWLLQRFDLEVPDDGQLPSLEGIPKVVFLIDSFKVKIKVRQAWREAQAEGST

What was measured:
[1] = biological target: T1, CYP17A1_V366M (Homo sapiens, UniProt P05093, V366M); experiment: biochemical
[2] = biological target: T1, CYP17A1_V366M; type: binding; details: for Kd: spectral binding, 50 nM protein, 22 °C; for Binding to V366M mutant (spectral): result in words
[3] = system: CYP17A1 V366M
[4] = biological target: T1, CYP17A1_V366M; details: result in words; 17OH-PREG range 0–100 µM
[5] = system: T2, CYP17A1-V366M; experiment: 17,20 lyase assay (17OH-PREG to DHEA), V366M CYP17A1; type: biochemical, human
T2 construct: (His)4; made in house; host or cells: E. coli JM109

CC(=O)[C@H]1CC[C@H]2[C@@H]3CC=C4C[C@@H](O)CC[C@]4(C)[C@H]3CC[C@]12C [PREG, pregnenolone] gave an IC50 [1] of 1400 ± 200 nM and a Kd [2] of 92 ± 15 nM.
For CC(=O)[C@H]1CC[C@H]2[C@@H]3CCC4=CC(=O)CC[C@]4(C)[C@H]3CC[C@]12C [PROG, Progesterone], the “Vmax, 17α-Hydroxylase PROG to 17OH-PROG” value ([3]; PROG as substrate) was 0.42 min⁻¹, the Km ([3]; read-out: Km, 17α-Hydroxylase PROG to 17OH-PROG, PROG as substrate, CYP17A1:POR 1:2, 37 °C) was 8.4 ± 0.9 µM and the “Cat Eff, 17α-Hydroxylase PROG to 17OH-PROG” value ([3]; relative to WT) was 43%. The Kd [2] was 287 ± 35 nM.
In the case of C[C@]12CC[C@H](O)CC1=CC[C@@H]1[C@@H]2CC[C@]2(C)C(c3cccnc3)=CC[C@@H]12 [Abiraterone, abiraterone], the “Binding to V366M mutant (spectral)” value [2] is reported as “this binding pattern was not observed” and the “Binding to V366M mutant (spectral)” value ([2]; listed as abiraterone) is reported as “no binding was observed”.
For CC(=O)[C@@]1(O)CC[C@H]2[C@@H]3CC=C4C[C@@H](O)CC[C@]4(C)[C@H]3CC[C@@]21C [17OH-PREG, 17α-hydroxypregnenolone], the “Inhibition of 17α-hydroxylation of PROG by V366M mutant” value [4] was “no inhibition”, the “17,20 lyase activity with 17OH-PREG as substrate” value [5] was “no activity” and the “Binding to V366M mutant (spectral)” value [2] was “not observed”.
For c1c[nH]cn1 [imidazole], the “Binding to V366M mutant (spectral)” value [2] was “could bind”.

Like-named read-outs stand apart in the source and are kept apart here.
